Experimental data published in publication PMC3961306, “Comparison of the Cancer Gene Targeting and Biochemical Selectivities of All Targeted Kinase Inhibitors Approved for Clinical Use” (PLoS ONE, 2014).

Sequences of proteins named here, by UniProt entry; tags and fusion partners are left off. Residues count along the entry.
UniProt Q13131, whole entry, stated change not applied: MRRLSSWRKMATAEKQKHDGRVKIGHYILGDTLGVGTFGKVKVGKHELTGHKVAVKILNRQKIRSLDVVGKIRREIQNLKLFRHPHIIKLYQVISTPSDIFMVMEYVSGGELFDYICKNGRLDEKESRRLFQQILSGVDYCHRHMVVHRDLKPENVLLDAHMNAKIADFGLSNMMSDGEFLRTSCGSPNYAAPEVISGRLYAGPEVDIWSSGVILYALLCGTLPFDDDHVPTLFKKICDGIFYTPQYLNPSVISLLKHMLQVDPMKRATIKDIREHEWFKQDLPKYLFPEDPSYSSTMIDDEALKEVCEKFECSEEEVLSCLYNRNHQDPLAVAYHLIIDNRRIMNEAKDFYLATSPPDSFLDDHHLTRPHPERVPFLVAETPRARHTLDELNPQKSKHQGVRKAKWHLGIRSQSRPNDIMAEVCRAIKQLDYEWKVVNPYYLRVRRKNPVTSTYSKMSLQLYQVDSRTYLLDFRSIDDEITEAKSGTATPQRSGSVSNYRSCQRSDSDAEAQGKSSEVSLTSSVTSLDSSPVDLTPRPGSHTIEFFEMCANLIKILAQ
UniProt Q02779, whole entry, stated change not applied: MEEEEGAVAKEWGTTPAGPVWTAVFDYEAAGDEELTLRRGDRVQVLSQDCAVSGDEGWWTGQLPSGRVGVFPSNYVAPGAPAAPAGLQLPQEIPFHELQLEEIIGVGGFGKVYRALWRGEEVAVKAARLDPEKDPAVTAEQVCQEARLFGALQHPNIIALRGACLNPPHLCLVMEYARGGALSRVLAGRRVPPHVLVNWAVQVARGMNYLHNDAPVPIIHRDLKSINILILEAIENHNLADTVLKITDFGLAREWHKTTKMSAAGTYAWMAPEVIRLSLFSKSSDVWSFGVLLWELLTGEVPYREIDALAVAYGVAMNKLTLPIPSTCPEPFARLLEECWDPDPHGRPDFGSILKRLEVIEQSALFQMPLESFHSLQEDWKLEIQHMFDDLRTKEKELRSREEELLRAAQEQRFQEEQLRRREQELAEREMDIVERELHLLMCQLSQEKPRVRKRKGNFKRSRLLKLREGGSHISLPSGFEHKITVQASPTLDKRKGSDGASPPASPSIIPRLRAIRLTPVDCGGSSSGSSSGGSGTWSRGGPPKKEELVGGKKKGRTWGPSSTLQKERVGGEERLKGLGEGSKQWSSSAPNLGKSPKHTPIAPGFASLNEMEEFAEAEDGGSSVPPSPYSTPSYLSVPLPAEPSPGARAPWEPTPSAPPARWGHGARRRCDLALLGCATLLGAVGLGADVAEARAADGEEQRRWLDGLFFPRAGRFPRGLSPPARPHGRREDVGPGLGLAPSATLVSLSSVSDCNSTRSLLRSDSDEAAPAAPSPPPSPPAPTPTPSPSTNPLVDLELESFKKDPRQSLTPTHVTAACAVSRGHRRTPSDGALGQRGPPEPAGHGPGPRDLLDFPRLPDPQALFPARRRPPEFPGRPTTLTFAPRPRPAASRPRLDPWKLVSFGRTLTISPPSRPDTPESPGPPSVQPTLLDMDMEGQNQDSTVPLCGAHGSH
UniProt P10721, 26-976 V654A: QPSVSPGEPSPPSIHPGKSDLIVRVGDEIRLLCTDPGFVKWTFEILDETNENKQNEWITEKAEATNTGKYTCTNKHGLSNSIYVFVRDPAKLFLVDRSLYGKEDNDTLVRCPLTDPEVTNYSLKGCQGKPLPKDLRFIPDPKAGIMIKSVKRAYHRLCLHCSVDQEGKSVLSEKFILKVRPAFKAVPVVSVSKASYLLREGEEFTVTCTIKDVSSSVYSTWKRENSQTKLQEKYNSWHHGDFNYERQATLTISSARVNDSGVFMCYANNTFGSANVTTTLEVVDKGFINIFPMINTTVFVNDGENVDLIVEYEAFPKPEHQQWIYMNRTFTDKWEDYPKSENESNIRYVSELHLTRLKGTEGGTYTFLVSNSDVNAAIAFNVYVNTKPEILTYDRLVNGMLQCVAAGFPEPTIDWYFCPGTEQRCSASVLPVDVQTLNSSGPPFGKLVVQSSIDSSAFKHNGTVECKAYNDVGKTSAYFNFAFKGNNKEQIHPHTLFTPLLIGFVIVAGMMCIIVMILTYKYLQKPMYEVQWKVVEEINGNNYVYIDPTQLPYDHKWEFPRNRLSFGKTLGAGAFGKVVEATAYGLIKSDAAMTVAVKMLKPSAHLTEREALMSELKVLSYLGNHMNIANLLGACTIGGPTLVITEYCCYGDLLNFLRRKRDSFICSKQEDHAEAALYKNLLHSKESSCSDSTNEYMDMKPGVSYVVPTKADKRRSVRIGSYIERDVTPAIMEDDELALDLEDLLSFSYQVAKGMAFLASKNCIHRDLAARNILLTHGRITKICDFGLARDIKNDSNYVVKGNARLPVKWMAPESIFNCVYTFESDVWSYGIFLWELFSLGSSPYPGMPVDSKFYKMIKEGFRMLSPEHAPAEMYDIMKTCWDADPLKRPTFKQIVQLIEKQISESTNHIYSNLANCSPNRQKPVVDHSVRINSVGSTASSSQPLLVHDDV
UniProt Q13557, whole entry, stated change not applied: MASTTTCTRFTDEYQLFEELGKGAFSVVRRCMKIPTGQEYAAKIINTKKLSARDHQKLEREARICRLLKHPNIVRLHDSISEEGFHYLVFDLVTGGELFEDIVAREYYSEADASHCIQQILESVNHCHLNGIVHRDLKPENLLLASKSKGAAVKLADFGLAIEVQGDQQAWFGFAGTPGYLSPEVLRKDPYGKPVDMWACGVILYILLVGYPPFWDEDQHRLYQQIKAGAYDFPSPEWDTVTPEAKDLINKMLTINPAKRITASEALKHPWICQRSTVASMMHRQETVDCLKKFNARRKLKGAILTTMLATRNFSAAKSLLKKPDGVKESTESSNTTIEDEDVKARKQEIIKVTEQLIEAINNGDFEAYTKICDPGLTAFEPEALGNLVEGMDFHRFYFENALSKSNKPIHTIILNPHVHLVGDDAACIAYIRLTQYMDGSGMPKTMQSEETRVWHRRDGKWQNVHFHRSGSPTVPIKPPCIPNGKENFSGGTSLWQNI

Tests used:
Assay in all cases: Kinase profiling in a biochemical assay panel (mobility shift assays and ELISA), %-inhibition at 1 μM; selectivity entropy
[1] = molecular target: panel of more than 300 wild-type and mutant kinases (313 kinase panel) (Homo sapiens, UniProt Q13131)
[2] = molecular target: T1, panel of more than 300 wild-type and mutant kinases (313 kinase panel) (Homo sapiens, UniProt Q8TD19)
T1 sequence (Q8TD19 1-979): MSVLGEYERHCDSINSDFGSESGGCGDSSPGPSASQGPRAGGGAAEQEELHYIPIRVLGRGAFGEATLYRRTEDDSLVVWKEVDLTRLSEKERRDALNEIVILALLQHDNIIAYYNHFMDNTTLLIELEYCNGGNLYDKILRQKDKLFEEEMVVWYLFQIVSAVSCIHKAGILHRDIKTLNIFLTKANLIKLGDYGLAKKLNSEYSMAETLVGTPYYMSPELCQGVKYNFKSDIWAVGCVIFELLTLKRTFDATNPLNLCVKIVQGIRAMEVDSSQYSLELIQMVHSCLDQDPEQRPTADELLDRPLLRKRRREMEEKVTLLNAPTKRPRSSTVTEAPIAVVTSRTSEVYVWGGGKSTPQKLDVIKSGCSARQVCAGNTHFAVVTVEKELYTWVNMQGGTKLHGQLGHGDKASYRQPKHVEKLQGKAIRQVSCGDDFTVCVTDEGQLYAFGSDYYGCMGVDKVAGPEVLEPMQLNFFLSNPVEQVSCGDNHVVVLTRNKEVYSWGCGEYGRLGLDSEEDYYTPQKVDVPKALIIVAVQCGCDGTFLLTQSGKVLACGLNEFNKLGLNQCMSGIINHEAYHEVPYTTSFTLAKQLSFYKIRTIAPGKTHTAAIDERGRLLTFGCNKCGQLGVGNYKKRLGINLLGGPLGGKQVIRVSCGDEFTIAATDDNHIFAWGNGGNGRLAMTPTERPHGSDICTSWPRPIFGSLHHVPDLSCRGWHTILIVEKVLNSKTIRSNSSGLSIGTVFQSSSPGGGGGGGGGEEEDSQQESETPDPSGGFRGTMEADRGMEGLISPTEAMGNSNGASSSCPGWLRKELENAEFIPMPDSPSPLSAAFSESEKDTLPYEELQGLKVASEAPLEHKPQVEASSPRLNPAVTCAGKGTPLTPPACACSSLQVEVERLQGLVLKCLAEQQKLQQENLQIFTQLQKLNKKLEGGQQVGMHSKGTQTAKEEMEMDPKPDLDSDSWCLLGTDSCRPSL

[3] = molecular target: panel of more than 300 wild-type and mutant kinases (313 kinase panel) (Homo sapiens, UniProt Q02779)
[4] = molecular target: panel of more than 300 wild-type and mutant kinases (313 kinase panel) (Homo sapiens, UniProt P10721, V654A)
[5] = molecular target: panel of more than 300 wild-type and mutant kinases (313 kinase panel) (Homo sapiens, UniProt Q13557)
[6] = molecular target: T2, panel of more than 300 wild-type and mutant kinases (313 kinase panel) (Homo sapiens, UniProt P54753)
T2 sequence (P54753 34-998): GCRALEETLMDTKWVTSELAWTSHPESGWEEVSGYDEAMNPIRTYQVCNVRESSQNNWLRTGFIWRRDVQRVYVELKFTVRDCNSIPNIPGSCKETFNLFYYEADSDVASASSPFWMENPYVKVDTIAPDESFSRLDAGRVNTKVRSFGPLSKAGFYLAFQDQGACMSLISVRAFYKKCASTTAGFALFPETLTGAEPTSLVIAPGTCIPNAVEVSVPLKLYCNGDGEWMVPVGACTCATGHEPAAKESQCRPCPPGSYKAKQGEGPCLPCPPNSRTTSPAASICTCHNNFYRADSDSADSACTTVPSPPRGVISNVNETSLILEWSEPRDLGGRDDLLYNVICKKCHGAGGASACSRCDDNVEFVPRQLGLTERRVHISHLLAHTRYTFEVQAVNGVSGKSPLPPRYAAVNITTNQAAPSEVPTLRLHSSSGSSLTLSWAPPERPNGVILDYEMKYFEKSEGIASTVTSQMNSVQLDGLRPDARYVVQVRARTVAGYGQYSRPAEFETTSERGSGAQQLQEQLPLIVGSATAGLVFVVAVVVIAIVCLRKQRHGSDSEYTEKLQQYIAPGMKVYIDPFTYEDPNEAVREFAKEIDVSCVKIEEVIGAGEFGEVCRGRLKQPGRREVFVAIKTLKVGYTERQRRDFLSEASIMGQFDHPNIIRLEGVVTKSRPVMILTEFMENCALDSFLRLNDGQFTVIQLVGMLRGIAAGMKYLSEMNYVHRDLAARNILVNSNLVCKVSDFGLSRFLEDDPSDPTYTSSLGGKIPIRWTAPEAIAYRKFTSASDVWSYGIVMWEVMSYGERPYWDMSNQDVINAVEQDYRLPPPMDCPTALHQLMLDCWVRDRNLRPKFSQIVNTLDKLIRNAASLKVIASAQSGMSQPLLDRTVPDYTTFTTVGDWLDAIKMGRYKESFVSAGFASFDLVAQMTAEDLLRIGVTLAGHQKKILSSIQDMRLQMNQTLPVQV

[7] = molecular target: T3, panel of more than 300 wild-type and mutant kinases (313 kinase panel) (Homo sapiens, UniProt P46734)
T3 sequence (P46734 1-347): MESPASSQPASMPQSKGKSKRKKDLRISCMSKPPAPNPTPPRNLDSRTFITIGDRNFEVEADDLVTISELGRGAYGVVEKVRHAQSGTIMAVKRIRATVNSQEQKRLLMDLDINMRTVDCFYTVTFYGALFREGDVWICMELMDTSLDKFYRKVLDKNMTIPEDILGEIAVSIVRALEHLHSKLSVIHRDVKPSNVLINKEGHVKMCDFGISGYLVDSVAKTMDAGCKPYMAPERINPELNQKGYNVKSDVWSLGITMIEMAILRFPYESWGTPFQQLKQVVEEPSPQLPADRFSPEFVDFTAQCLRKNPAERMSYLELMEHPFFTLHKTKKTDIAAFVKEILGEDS

SMILES | %-inhibition, AMPKα1/β1/γ1 ([1]; kinase AMPKα1/β1/γ1, 1 μM compound) | %-inhibition of NEK9 ([2]; kinase NEK9, 1 μM) | %-inhibition of MLK2 ([3]; kinase MLK2, 1 μM) | %-inhibition of KIT(V654A) ([4]; kinase KIT(V654A), compound at 1 μM) | %-inhibition, CaMK2δ ([5]; kinase CaMK2δ, 1 μM compound) | %-inhibition of EPHB3 ([6]; kinase EPHB3, compound at 1 μM) | %-inhibition of MAP2K3 ([7]; kinase MAP2K3, compound at 1 μM) | %-inhibition, AMPKα1/β1/γ1 ([1]; 1 µM) | %-inhibition of NEK9 ([2]; 1 µM) | %-inhibition of MLK2 ([3]; 1 µM) | %-inhibition of KIT(V654A) ([4]; 1 µM) | %-inhibition, CaMK2δ ([5]; 1 µM) | %-inhibition of EPHB3 ([6]; 1 µM) | %-inhibition of MAP2K3 ([7]; 1 µM)
CNC(=O)c1ccccc1Sc1ccc2c(/C=C/c3ccccn3)n[nH]c2c1 [axitinib] | 68% | 33% | 7.53% | 99% | 11% | -1.88% | 7.58% |  |  |  |  |  |  | 
COc1cc2ncnc(Nc3ccc(F)c(Cl)c3)c2cc1OCCCN1CCOCC1 [gefitinib] |  |  |  |  |  |  |  | 5.68% | 3.17% | 31% | -1.42% | -16% | 9% | 2.53%
C[C@@H]1CCN(C(=O)CC#N)C[C@@H]1N(C)c1ncnc2[nH]ccc12 [tofacitinib] |  |  |  |  |  |  |  | -3.32% | -2.83% | 4.68% | -4.5% | 16% | -0.341% | 2%
